pIC50: −log10 of the molar value.
Target: URAT1 (SLC22A12) (Homo sapiens (Human), UniProt Q96S37)
Experiment: URAT1 (SLC22A12) cellular uptake assay, 3H-orotate transport in stably transfected URAT-1/CHO cells
Details: for URAT1 inhibition in words / compared with lesinurad: comparison in words; for pIC50: read-out: URAT1 IC50, 3H-orotate uptake, URAT-1/CHO cells, URAT1 assay as described herein

Sequences of proteins named here, by UniProt entry; tags and fusion partners are left off. A change or cut given only in a name is not applied to a line headed by its entry.
UniProt Q96S37: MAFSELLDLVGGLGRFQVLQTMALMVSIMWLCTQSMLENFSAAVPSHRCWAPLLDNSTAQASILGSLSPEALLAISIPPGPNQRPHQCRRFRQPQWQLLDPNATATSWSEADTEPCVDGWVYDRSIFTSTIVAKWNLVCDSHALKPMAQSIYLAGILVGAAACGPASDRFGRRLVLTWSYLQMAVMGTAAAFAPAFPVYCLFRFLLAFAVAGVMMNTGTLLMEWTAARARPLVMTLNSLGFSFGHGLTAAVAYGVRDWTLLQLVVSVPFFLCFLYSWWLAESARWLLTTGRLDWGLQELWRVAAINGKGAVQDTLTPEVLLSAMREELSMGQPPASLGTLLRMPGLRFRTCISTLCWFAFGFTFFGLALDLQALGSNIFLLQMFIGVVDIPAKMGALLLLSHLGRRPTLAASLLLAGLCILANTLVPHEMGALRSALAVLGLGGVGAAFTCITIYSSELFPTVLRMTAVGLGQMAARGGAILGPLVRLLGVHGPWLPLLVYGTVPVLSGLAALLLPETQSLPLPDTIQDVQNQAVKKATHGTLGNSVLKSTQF

| Compound | URAT1 inhibition in words / compared with lesinurad | pIC50 |
| --- | --- | --- |
| O=C(Nc1ccc(-c2nn[nH]c2-c2ccccc2)cc1)c1c(O)[nH]c(=O)[nH]c1=O [Formula (Ic), 6-hydroxy-2,4-dioxo-N-(4-(4-phenyl-1H-1,2,3-triazol-5-yl)phenyl)-1,2,3,4-tetrahydropyrimidine-5-carboxamide] | more potent inhibitors of URAT1 than lesinurad | 6.96 |
| O=C(Nc1ccc(-c2c[nH]nn2)c(C(F)(F)F)c1)c1c(O)[nH]c(=O)[nH]c1=O [Formula (Ig), N-(4-(1H-1,2,3-triazol-5-yl)-3-(trifluoromethyl)phenyl)-6-hydroxy-2,4-dioxo-1,2,3,4-tetrahydropyrimidine-5-carboxamide] |  | 5.57 |
| O=C(Nc1ccc(-c2c[nH]nn2)cc1C(F)(F)F)c1c(O)[nH]c(=O)[nH]c1=O [Formula (Ih), N-(4-(1H-1,2,3-triazol-5-yl)-2-(trifluoromethyl)phenyl)-6-hydroxy-2,4-dioxo-1,2,3,4-tetrahydropyrimidine-5-carboxamide] |  | 5.80 |
| O=C(Nc1ccc(-c2cc(O)n[nH]2)cc1)c1c(O)[nH]c(=O)[nH]c1=O [Formula (Ii), 6-hydroxy-N-(4-(3-hydroxy-1H-pyrazol-5-yl)phenyl)-2,4-dioxo-1,2,3,4-tetrahydropyrimidine-5-carboxamide] | potent inhibitors of URAT1 | 5.04 |

— patent US10752613B2, “Compounds and their use for reducing uric acid levels” (Acquist LLC, priority 2016, dated 2020)
